In PubChem BioAssay (NCI):
Some tests of the compounds listed are not included; inactive here does not mean inactive elsewhere.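 The compound was tested at five concentrations on cells cultured in 96-well plates, with a 48-hour exposure period. GI50 marks 50% less growth.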

Assays:
Experiment in all cases: DTP human tumour cell line panel, 48 h; in the data active = GI50 below about 0.43 µM; inactive = the rest
786-0 renal = tested on: 786-0 renal
A498 renal = tested on: A498 renal
A549 NSCLC = tested on: A549 NSCLC
ACHN renal = tested on: ACHN renal
BT-549 breast = tested on: BT-549 breast
CAKI-1 renal = tested on: CAKI-1 renal
CCRF-CEM leukemia = tested on: CCRF-CEM leukemia
COLO 205 colon = tested on: COLO 205 colon
DU-145 prostate = tested on: DU-145 prostate
EKVX NSCLC = tested on: EKVX NSCLC
HCT-116 colon = tested on: HCT-116 colon
HCT-15 colon = tested on: HCT-15 colon
HL-60(TB) leukemia = tested on: HL-60(TB) leukemia
HOP-62 NSCLC = tested on: HOP-62 NSCLC
HOP-92 NSCLC = tested on: HOP-92 NSCLC
HS 578T breast = tested on: HS 578T breast
HT29 colon = tested on: HT29 colon
IGROV1 ovarian = tested on: IGROV1 ovarian
K-562 leukemia = tested on: K-562 leukemia
KM12 colon = tested on: KM12 colon
LOX IMVI melanoma = tested on: LOX IMVI melanoma
M14 melanoma = tested on: M14 melanoma
MALME-3M melanoma = tested on: MALME-3M melanoma
MCF7 breast = tested on: MCF7 breast
MDA-MB-231 breast = tested on: MDA-MB-231 breast
MDA-MB-435 = tested on: MDA-MB-435
MDA-N = tested on: MDA-N
MOLT-4 leukemia = tested on: MOLT-4 leukemia
NCI-H226 lung = tested on: NCI-H226 lung
NCI-H23 lung = tested on: NCI-H23 lung
NCI-H322M lung = tested on: NCI-H322M lung
NCI-H460 lung = tested on: NCI-H460 lung
NCI-H522 lung = tested on: NCI-H522 lung
NCI/ADR-RES ovarian = tested on: NCI/ADR-RES ovarian
OVCAR-3 ovarian = tested on: OVCAR-3 ovarian
OVCAR-4 ovarian = tested on: OVCAR-4 ovarian
OVCAR-5 ovarian = tested on: OVCAR-5 ovarian
OVCAR-8 ovarian = tested on: OVCAR-8 ovarian
PC-3 prostate = tested on: PC-3 prostate
RPMI-8226 leukemia = tested on: RPMI-8226 leukemia
RXF 393 renal = tested on: RXF 393 renal
SF-268 CNS = tested on: SF-268 CNS
SF-295 CNS = tested on: SF-295 CNS
SF-539 CNS = tested on: SF-539 CNS
SK-MEL-2 melanoma = tested on: SK-MEL-2 melanoma
SK-MEL-28 melanoma = tested on: SK-MEL-28 melanoma
SK-MEL-5 melanoma = tested on: SK-MEL-5 melanoma
SK-OV-3 ovarian = tested on: SK-OV-3 ovarian
SN12C renal = tested on: SN12C renal
SNB-19 CNS = tested on: SNB-19 CNS
SNB-75 CNS = tested on: SNB-75 CNS
SR leukemia = tested on: SR leukemia
SW-620 colon = tested on: SW-620 colon
T-47D breast = tested on: T-47D breast
TK-10 renal = tested on: TK-10 renal
U251 CNS = tested on: U251 CNS
UACC-257 melanoma = tested on: UACC-257 melanoma
UACC-62 melanoma = tested on: UACC-62 melanoma

Measured: GI50

CN1CCCC(OC(=O)C(O)(c2ccccc2)C2CCCC2)C1 (stereo not drawn)
inactive: 786-0 renal > 100 µM | A498 renal > 100 µM | A549 NSCLC > 100 µM | ACHN renal > 100 µM | BT-549 breast > 100 µM | CAKI-1 renal > 100 µM | CCRF-CEM leukemia > 100 µM | COLO 205 colon > 100 µM | DU-145 prostate > 100 µM | EKVX NSCLC > 100 µM | HCT-116 colon > 100 µM | HCT-15 colon > 100 µM | HL-60(TB) leukemia > 100 µM | HOP-62 NSCLC > 100 µM | HOP-92 NSCLC > 100 µM | HS 578T breast > 100 µM | HT29 colon > 100 µM | IGROV1 ovarian > 100 µM | K-562 leukemia > 100 µM | KM12 colon > 100 µM | LOX IMVI melanoma > 100 µM | M14 melanoma > 100 µM | MALME-3M melanoma > 100 µM | MCF7 breast > 100 µM | MDA-MB-231 breast > 100 µM | MDA-MB-435 = > 100 µM | MDA-N > 100 µM | MOLT-4 leukemia 91.4 µM | NCI-H226 lung > 100 µM | NCI-H23 lung > 100 µM | NCI-H322M lung > 100 µM | NCI-H460 lung > 100 µM | NCI-H522 lung > 100 µM | NCI/ADR-RES ovarian > 100 µM | OVCAR-3 ovarian > 100 µM | OVCAR-4 ovarian > 100 µM | OVCAR-5 ovarian > 100 µM | OVCAR-8 ovarian > 100 µM | PC-3 prostate > 100 µM | RPMI-8226 leukemia > 100 µM | RXF 393 renal > 100 µM | SF-268 CNS > 100 µM | SF-295 CNS > 100 µM | SF-539 CNS > 100 µM | SK-MEL-2 melanoma > 100 µM | SK-MEL-28 melanoma > 100 µM | SK-MEL-5 melanoma > 100 µM | SK-OV-3 ovarian > 100 µM | SN12C renal > 100 µM | SNB-19 CNS > 100 µM | SNB-75 CNS > 100 µM | SR leukemia > 100 µM | SW-620 colon > 100 µM | T-47D breast > 100 µM | TK-10 renal > 100 µM | U251 CNS > 100 µM | UACC-257 melanoma > 100 µM | UACC-62 melanoma > 100 µM
